The target of the test is T1, PLpro protein (Severe acute respiratory syndrome coronavirus 2, UniProt P0DTD1).
T1 construct: mixed with PLpro protein (0.1µM) in experimental buffer; His tag; made in house
The test can be described thus: biochemical. Further details: species or system SARS CoV-2.

The IC50 is the concentration at which inhibition is half-maximal. Low readings indicate higher potency, high ones lower potency.

`CC(=O)NCC(=O)N[C@H]1CC[S+](C)Cc2cc3cc(c2)C[S+](C)CC[C@H](NC(=O)[C@H](CCC(=O)O)NC(=O)[C@H](Cc2c[nH]c4ccccc24)NC(=O)[C@H](CC(N)=O)NC(=O)[C@H](CCC(N)=O)NC(=O)[C@H](CCCNC(=N)N)NC(=O)[C@H](C(C)C)NC1=O)C(=O)N[C@@H](CCC(N)=O)C(=O)N[C@@H](CO)C(=O)N[C@@H](CO)C(=O)N[C@@H](Cc1c[nH]cn1)C(=O)N[C@@H](CC(N)=O)C(=O)N[C@@H](CCCNC(=N)N)C(=O)N[C@H](C(N)=O)CC[S+](C)C3` (stereo partly shown) [Peptide W6] displayed a half-inhibitory concentration (IC50) of 7.06 µM.

Source of the values: patent EP4790062A1, “PHAGE PARTICLE COMPLEX, PREPARATION METHOD THEREFOR, AND USE THEREOF” (Pingshan Translational Medicine Center, Shenzhen Bay …, priority 2023, dated 2025).
